The values that follow come from ChEMBL document CHEMBL4385610, “Selective Inhibition of Histone Deacetylase 10: Hydrogen Bonding to the Gatekeeper Residue is Implicated” (J Med Chem, 2019).

Assay [1] addresses T1, Polyamine deacetylase HDAC10 (Homo sapiens, UniProt Q969S8).
T1 sequence (Q969S8 whole entry): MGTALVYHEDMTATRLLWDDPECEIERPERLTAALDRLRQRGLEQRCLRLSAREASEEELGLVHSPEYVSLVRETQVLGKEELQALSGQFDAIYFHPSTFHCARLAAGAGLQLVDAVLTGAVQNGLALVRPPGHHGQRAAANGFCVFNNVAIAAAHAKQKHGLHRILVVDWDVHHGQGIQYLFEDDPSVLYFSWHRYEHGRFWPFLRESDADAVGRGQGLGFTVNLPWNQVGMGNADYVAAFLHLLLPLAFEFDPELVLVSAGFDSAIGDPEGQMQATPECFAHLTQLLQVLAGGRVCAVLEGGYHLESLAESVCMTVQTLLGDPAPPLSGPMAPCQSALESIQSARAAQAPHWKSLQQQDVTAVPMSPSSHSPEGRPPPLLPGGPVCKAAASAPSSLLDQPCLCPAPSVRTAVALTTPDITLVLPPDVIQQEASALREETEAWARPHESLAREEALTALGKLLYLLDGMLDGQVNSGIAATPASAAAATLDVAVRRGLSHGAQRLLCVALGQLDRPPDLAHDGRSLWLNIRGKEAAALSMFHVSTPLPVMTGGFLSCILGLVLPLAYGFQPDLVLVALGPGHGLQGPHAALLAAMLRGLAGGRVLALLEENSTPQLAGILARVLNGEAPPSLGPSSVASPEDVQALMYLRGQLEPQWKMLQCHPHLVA
As to the kind of experiment: Inhibition of dye-labeled tracer binding to HDAC10 (unknown origin) transfected in human HeLa cells measured after 2 hrs by nano-luciferase reporter gene-based BRET assay. In kind it is cell-based.

In assay [2] the target is T1, Polyamine deacetylase HDAC10. As to the kind of experiment: Inhibition of tubastatin-Alexa647-tracer binding to recombinant GST-tagged HDAC10 (unknown origin) measured after 1 hr by TR-FRET assay.

`CCCCN(Cc1ccc(C(=O)NO)cc1)C(=O)Nc1ccccc1` [NEXTURASTAT A]: the values for the IC50 in assay [1] and in assay [2] were 501 nM and 100 nM, respectively.
